Source: patent US6683078B2, “Use of sulfonyl aryl or heteroaryl hydroxamic acids and derivatives thereof as aggrecanase inhibitors” (priority 2001, dated 2004)

Molecular target: T1, Recombinant human MMP-2 (Homo sapiens, UniProt P08253)
T1 construct: made in house
T1 sequence (P08253 110-660): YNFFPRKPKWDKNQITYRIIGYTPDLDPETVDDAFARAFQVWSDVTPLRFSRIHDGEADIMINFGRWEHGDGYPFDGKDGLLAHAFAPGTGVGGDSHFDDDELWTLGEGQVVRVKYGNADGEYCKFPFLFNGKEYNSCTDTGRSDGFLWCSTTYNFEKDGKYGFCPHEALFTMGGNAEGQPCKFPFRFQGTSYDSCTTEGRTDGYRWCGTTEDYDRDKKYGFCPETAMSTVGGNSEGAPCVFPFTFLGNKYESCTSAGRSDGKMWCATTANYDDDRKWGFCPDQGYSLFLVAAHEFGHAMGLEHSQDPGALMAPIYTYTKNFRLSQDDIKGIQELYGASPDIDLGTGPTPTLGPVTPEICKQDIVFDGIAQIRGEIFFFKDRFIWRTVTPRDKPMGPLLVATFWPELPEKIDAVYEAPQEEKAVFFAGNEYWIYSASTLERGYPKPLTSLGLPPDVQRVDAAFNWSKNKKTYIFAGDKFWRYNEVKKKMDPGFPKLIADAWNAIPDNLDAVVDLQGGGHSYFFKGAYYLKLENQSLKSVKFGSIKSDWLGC
Assay: In vitro MMP inhibition, fluorogenic peptide substrate
Format: biochemical
Details: Inhibition Table A

**Q.** How did the IC50 turn out when `O=C(NO)c1ccccc1S(=O)(=O)N1CCC(Oc2ccc(C(F)(F)F)cc2)CC1` [Example 13, N-hydroxy-2-[[4-[4-(trifluoromethyl)phenoxy]-1-piperidinyl]sulfonyl]benzamide] was run?
**A.** Its IC50 is 1.3 nM.
